Published antibiotic growth screens (doi:10.1038/s41589-023-01349-8)
Some of the results follow.

system: A. baumannii ATCC 17978; experiment: relative growth (fraction of control); higher = less inhibition; settings: 50 µM

SMILES	relative growth
C[C@H](CO)N1C[C@H](C)[C@H](CN(C)C(=O)CN2CCOCC2)Oc2ncc(C#C[C@@H](C)O)cc2C1=O	1.21
COc1ccc(S(=O)(=O)N[C@H]2CC[C@@H](CC(=O)N3CCN(c4ccccc4)CC3)O[C@H]2CO)cc1	0.973
CC(C)CC#Cc1ccc2c(c1)O[C@@H](CN(C)C(=O)c1cnccn1)[C@@H](C)CN([C@@H](C)CO)S2(=O)=O	0.759
C[C@@H]1CN([C@@H](C)CO)S(=O)(=O)c2ccc(C#CCN(C)C)cc2O[C@H]1CN(C)C(=O)c1ccccc1F	1.03
O=C(C[C@@H]1C=C[C@@H](NS(=O)(=O)c2ccccc2)[C@H](CO)O1)NCc1ccncn1	1.11
O=C(O)c1ccc(S(=O)(=O)N(Cl)Cl)cc1	0.989
O=C(Oc1ccccc1C(=O)O)c1ccccc1O	1.28
Brc1ccc2nc(N3CCCN(Cc4ccccc4)CC3)nc(NC3CCN(Cc4ccccc4)CC3)c2c1	0.552
COc1c(C)c2c(c(O)c1C/C=C(\C)CCC(=O)O)C(=O)OC2	0.912
C[C@@H](O)Cn1c(=N)n(C)c2ccccc21	1.22
C[C@@H]1CC2C3CCC4=CC(=O)C=C[C@]4(C)[C@@]3(F)[C@@H](O)C[C@]2(C)[C@@]1(O)C(=O)COP(=O)([O-])[O-].[Na+].[Na+] (some centres not stated)	1.1
CC(C)CC#Cc1ccc2c(c1)O[C@@H](CN(C)C(=O)c1cnccn1)[C@H](C)CN([C@H](C)CO)S2(=O)=O	0.916
CCCNC(=O)N1C[C@@H](O)COC[C@@H]2O[C@@H](CC(=O)N3CCN(C)CC3)CC[C@H]21	0.96
CO[C@@H]1CN(C)C(=O)c2ccc(NC(=O)Nc3cccc(F)c3)cc2OC[C@H](C)N(C(=O)Nc2c(C)noc2C)C[C@@H]1C	1.11
CCCOc1ccc(=O)n(C)n1	1.14
Fc1cccc(-c2csc(COc3ccccc3Cl)n2)c1	1.01
N[C@@H](c1ccncc1)c1ccc(OCc2ccccc2)cc1	0.972
C[C@H](CO)N1C[C@H](C)[C@@H](CN(C)C(=O)Nc2ccnc(N3CCOCC3)c2)OCc2cnnn2CCCC1=O	0.921
C[C@H](CO)N1C[C@H](C)[C@H](CN(C)C(=O)c2ccc3c(c2)OCO3)Oc2cc(-c3ccncc3)ccc2S1(=O)=O	1.04
O=C1C(CCS(=O)c2ccccc2)C(=O)N(c2ccccc2)N1c1ccccc1 (configuration not stated)	0.963
CCOC(=O)[C@H](C(C)=O)[C@H]1CCS(=O)(=O)C1	1.05

SMILES	relative growth
CC(=O)NCc1nnnn1C1CCCCC1	1.13
CNC[C@H](O)[C@@H](O)[C@H](O)[C@H](O)CO	0.983
O=C(C[C@@H]1CC[C@H]2[C@@H](COC[C@H](O)CN2C(=O)c2ccc3c(c2)OCO3)O1)NCCN1CCCCC1	0.788
O=C(C[C@H]1C=C[C@@H](NC(=O)c2cccnc2)[C@@H](CO)O1)NCCN1CCCCC1	1.01
CC(C)n1c(=S)[nH]c2ccccc21	0.969
Cn1cnc(S(=O)(=O)N[C@H]2C=C[C@@H](CC(=O)N3CCN(c4ccccc4)CC3)O[C@H]2CO)c1	1.09
COc1cccc(OC)c1C(=O)NN	1.04
O=C(N/N=C/[C@H](O)[C@@H](O)[C@@H](O)[C@H](O)C(=O)O)c1ccccn1	0.811
OC[C@H]1O[C@H](Oc2cc(O)cc(/C=C/c3ccc(O)cc3)c2)[C@H](O)[C@@H](O)[C@@H]1O	1.19
COCC(=O)N1C[C@H](C)[C@H](OC)CN(C)C(=O)c2ccc(NC(=O)Nc3cccc(F)c3)cc2OC[C@H]1C	0.852
CO[C@@H]1CN(C)C(=O)c2cc(NS(C)(=O)=O)ccc2OC[C@H](C)N(C(=O)C2CCCCC2)C[C@@H]1C	0.982
COCCc1nc2c(c(=O)n(C)c(=O)n2C)n1C	0.941
Cc1cn2c(=O)c(C(=O)O)cnc2s1	1.1
COc1ccc(S(N)(=O)=O)cc1OC	1.02
N=C1NCCC(C2NC(=O)/C(=C\NC(N)=O)NC(=O)C(CNC(=O)CC(N)CCCN)NC(=O)C(CO)NC(=O)C(N)CNC2=O)N1.O=S(=O)(O)O (configuration not stated)	0.88
COc1ccc(C#Cc2ccc3c(c2)[C@]2(C(=O)N3)[C@H](C(=O)N3CCc4cc(OC)c(OC)cc4C3)[C@H]3C(=O)O[C@H](c4ccccc4)[C@H](c4ccccc4)N3[C@@H]2c2ccc(O)cc2)cc1	0.863
O=C1CCN(c2ccccc2)N1	1.03
COc1ccc(S(=O)(=O)N2C[C@H](O)COC[C@@H]3O[C@H](CC(=O)NCc4ccc(Cl)c(Cl)c4)CC[C@H]32)cc1	0.823
CCCCC/C=C/CCC(=O)N[C@H]1[C@H](Oc2c3cc4cc2Oc2ccc(cc2Cl)[C@@H](O[C@@H]2O[C@H](CO)[C@@H](O)[C@H](O)[C@H]2NC(C)=O)[C@@H]2NC(=O)[C@H](NC(=O)[C@@H]4NC(=O)[C@H]4NC(=O)C(Cc5ccc(c(Cl)c5)O3)NC(=O)[C@H](N)c3ccc(O)c(c3)Oc3cc(O)cc4c3)c3ccc(O)c(c3)-c3c(OC4O[C@H](CO)[C@@H](O)[C@H](O)[C@@H]4O)cc(O)cc3[C@@H](C(=O)O)NC2=O)O[C@H](CO)[C@@H](O)[C@@H]1O (some centres not stated) [TEICOPLANIN [A(2-1) shown]]	0.834
[O-][n+]1cccc(CO)c1	0.957
CCS(=O)(=O)NCC[C@@H]1CC[C@@H](NS(=O)(=O)c2ccccc2C)[C@H](CO)O1	0.864
